We go through one compound from patent US9663523B2, “BET protein-inhibiting 5-aryltriazoleazepines” (BAYER PHARMA AKTIENGESELLSCHAFT, priority 2012, dated 2017).

As usually defined, the IC50 is the concentration that gives 50% inhibition.

In this experiment the target is BRD4(1) (amino acids 44-168) (Homo sapiens (Human), UniProt O60885). Description: BRD4 binding strength, TR-FRET (HTRF) assay of BRD4(1) / acetylated histone H4 peptide interaction. To be noted: inhibition of BRD4(1)/Ac-H4 peptide interaction. An excerpt:
To assess the BRD4 binding strength of the compounds according to the invention, the ability thereof to inhibit the interaction between BRD4 and acetylated histone H4 in a dose-dependent manner was quantified. For this purpose, a time-resolved fluorescence resonance energy transfer (TR-FRET) assay was used, which measures the binding between N-terminally His6-tagged BRD4(1) (amino acids 44-168) and a synthetic acetylated histone H4 (Ac-H4) peptide with sequence […]-biotin. The recombinant BRD4 protein produced in-house according to Filippakopoulos et al., Cell, 2012, 149:214-231 was expressed in E. coli and purified by means of (Ni-NTA) affinity and (Sephadex G-75) size exclusion chromatography. The Ac-H4 peptide can be purchased, for example, from Biosyntan (Berlin, Germany). […] For this purpose, 100-fold concentrated solutions in DMSO were prepared by serial dilutions (1:3.4) of a 2 mM stock solution into a clear, 384-well microtitre plate (Greiner Bio-One, Frickenhausen, Germany). From this, 50 nl were transferred into a black test plate (Greiner Bio-One, Frickenhausen, Germany). […] The formation of BRD4/Ac-H4 complexes was determined by the measurement of the resonance energy transfer from the streptavidin-Eu cryptate to the anti-6His-XL665 antibody present in the reaction. […]
On the technique in general: In TR-FRET formats the signal depends on donor and acceptor labels being close together.

Compound `Cc1nnc2n1-c1ccccc1C(c1ccc(Cl)cc1)=CC2CC(=O)OC(C)(C)C` (stereo in doubt) [Example 9, tert-butyl (−)-[(4R)-6-(4-chlorophenyl)-1-methyl-4H-[1,2,4]triazolo[4,3-a][1]benzazepin-4-yl]acetate] had an IC50 of 200 nM.
